Results taken from ChEMBL document CHEMBL1144677, “Novel quinazolinone derivatives as 5-HT7 receptor ligands” (Bioorg Med Chem, 2008).

Sequences of proteins named here, by UniProt entry; tags and fusion partners are left off. A change or cut given only in a name is not applied to a line headed by its entry.
UniProt P28335: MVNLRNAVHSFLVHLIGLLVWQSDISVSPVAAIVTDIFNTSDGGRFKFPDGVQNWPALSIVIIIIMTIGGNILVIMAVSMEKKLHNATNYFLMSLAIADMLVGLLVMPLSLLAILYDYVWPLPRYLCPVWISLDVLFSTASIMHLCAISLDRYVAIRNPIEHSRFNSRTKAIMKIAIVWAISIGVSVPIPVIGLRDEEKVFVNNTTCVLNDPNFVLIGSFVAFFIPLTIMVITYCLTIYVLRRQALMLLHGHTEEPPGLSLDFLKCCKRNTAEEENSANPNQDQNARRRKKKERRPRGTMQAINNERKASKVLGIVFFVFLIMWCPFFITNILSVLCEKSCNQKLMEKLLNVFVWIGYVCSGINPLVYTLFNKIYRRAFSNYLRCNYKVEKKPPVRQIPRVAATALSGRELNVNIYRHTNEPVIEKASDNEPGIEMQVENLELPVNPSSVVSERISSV

Target: 5-hydroxytryptamine receptor 2C (Homo sapiens, UniProt P28335)

IC50: 460 nM
SMILES: Cc1cccc(N2CCN(CCCC(=O)NCc3nc4ccccc4c(=O)n3-c3ccccc3)CC2)c1C
